A549 viability = counter-screen for Nrf2 inhibitors: cytotoxicity in A549 cells; AID 504648; 390,000 compounds, 0.16% hits; A549 ARE-Fluc cells, CellTiter-Fluor viability, 18-24 h; Potency, µM (series often up to 46 µM), for the others: top-dose activity change, negative = cytotoxicity, most hits filed as inhibitors; also: potency is read from the fitted curve at half-maximal effect; % is scaled to controls: 0 for no effect and ±100 for the full control effect
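A549 ARE-Fluc cells in 5% FBS OPTI-MEM, 5000 cells/well, rested 2 h then exposed to compounds in concentration-response for 18-24 h at 37 °C. Viability by CellTiter-Fluor fluorescence (Ex 405/Em 525) after 30 min; luciferase luminescence (BugLite, 15 min, RT) read afterwards.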
Nrf2 inh = inhibitors of Nrf2 signaling; A549 ARE-Fluc reporter, luciferase luminescence, 18-24 h; Potency, µM (doses to about 46 µM), for inactives: at the top dose activity change, negative = inhibition, usual class: inhibitors; 360,000 compounds, 2.1% hits; also: potency is read from the fitted curve at half-maximal effect; % is scaled to controls: 0 for no effect and ±100 for the full control effect; nearly all actives have a fitted effect of over 60% in size
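Concentration-response testing used A549 ARE_Fluc cells at 5000 cells/well. Following an 18-24 h compound incubation, viability was read by fluorescence (Ex 405/Em 525) and luciferase output by luminescence.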
PI4K2A inh = blocks human PI4K2A kinase activity; Q9BTU6; purified PI4K2A, ADP-Glo luminescence, 1 h; stronger effect = lower value; activity change, negative = inhibition, % at 76.9 µM; 420,000 compounds, 0.13% hits; in the data active = activity change below about -50%; inconclusive = mostly about -30% to -49%;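 also: -100% = wells without enzyme as full effect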
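Compounds are screened against recombinant PI4K2A using PI as substrate and ATP, the latter dispensed at 300 microM. Reactions run one hour at ambient temperature before ADP-Glo detection; full inhibition defined by wells lacking enzyme.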
Nrf2 ARE act = activators of Nrf2 (ARE) signaling; AREc32 ARE-luciferase reporter (MCF7-derived line), luminescence, 24 h; Potency, µM (titrated, usually from 46.1 µM), inactives show at the top dose activation, actives largely listed as activators; 410,000 compounds, 0.31% hits; also: potency is read from the fitted curve at half-maximal effect; % of control where 0% means no effect; nearly all actives have a fitted effect of over 65% in size
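AREc32 cells carrying an ARE-driven firefly luciferase, 1000 cells/well in OPTI-MEM with 5% FBS, dosed after overnight attachment and incubated 24 hr at 37 deg C. Steady-Glo luminescence read after 30 min at RT.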
GALK inh = inhibitors of human galactokinase; P51570; Purified GALK, Kinase-Glo residual ATP luminescence; Potency, µM (top dose mostly 57.5 µM), for inactives: top-dose activity change, negative = inhibition, usual class: inhibitors; 270,000 compounds, 0.007% hits; AID 1868; also: potency is read from the fitted curve at half-maximal effect; % is scaled to controls: 0 for no effect and ±100 for the full control effect
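Human GALK (5 nM) with 35 uM ATP and 100 uM galactose in 20 mM HEPES pH 8.0, 5 mM MgCl2, 60 mM NaCl, 1 mM DTT, 0.01% BSA. After 1 h at room temperature, leftover ATP was read by Kinase-Glo Plus luminescence.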
miR-21 reporter = miR-21 reporter, rising signal; Potency, µM (titrated, usually from 38.3 µM), without a hit: at the highest dose reporter change, positive = more light; AID 2288; 340,000 tested, under 10 active; HeLa miR-21 FLuc reporter, luciferase, 48 h; active = well fitted rising curve with a large enough effect; inconclusive = small, poorly fitted or top-dose-only effect; inactive = no such curve, though single readings can be large or run the other way;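 note: % of control where 0% means no effect; miR-21 action dims this reporter so a rising signal means less miR-21 action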
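HeLa cells endogenously expressing miR-21, stably carrying CMV-driven firefly luciferase with a downstream miR-21 binding site, 2000 cells/well. Titrations up to approximately 40 uM, 48 hours; luciferase luminescence read.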
An asterisk follows results filed as active; u = inconclusive; x = no result given. Sampled rows, rich in hits. Any-hit rate of the full collection: about 2.2%. Unless noted, calls follow the shape of the dose curve; as a rule, active = well fitted curve in the direction sought with a large enough effect; inconclusive = small, poorly fitted or top-dose-only effect, or another doubt; inactive = no such curve, though single readings can be large; an effect the other way counts as inactive or inconclusive.

Values in the order – PI4K2A inh | miR-21 reporter | GALK inh | Nrf2 inh | A549 viability | Nrf2 ARE act
CO[C@@H]1[C@@H](OC)[C@H](C)[C@@](O)(CC(=O)O)O[C@H]1[C@H](C)[C@H]1O[C@@]2(CC[C@@](C)([C@H]3CC[C@@](C)([C@@H]4O[C@@H]([C@H]5O[C@](C)(O)[C@H](C)C[C@@H]5C)C[C@@H]4OC4C[C@H](OC)[C@@H](OC)[C@H](C)O4)O3)O2)C[C@H](O)[C@H]1C (stereo partly drawn)
    -4 | x | x | x | x | x
CN(C)c1ccc(-c2cc[nH]c(=O)c2N)cc1
    x | x | x | 15% | -10% | x
Cc1ccc(C)c(N2CCN(C(=O)c3ccc(CS(=O)Cc4cccc(Cl)c4)o3)CC2)c1 (stereo not drawn)
    1 | 5% | 5% | 18µM* | -8% | 0%
O=C(c1ccc(CS(=O)Cc2cccc(Cl)c2)o1)N1CCN(c2ccc(F)cc2)CC1 (stereo not drawn)
    3 | x | x | x | x | 0%
COc1cc2nc(NC(=O)c3ccc(F)cc3Cl)sc(=O)c2cc1OC
    30 | -1% | 3% | 6.5µM* | 2% | 0%
Cn1c(NCC2CCCCC2)nc2cc(-c3ccsc3)sc2c1=O
    -2 | x | x | x | x | 2µM*
Cn1c(NCc2ccncc2)nc2cc(-c3ccsc3)sc2c1=O
    -3 | x | x | x | x | 35%
COCCCNC(=O)C[C@H]1C[C@@]2(C(=O)OC)C(=C[C@H](C3CCCC3)O[C@@H]2C)N(CCc2ccc(OC)c(OC)c2)C1=O
    0 | x | x | x | x | x
COc1ccccc1NC(=O)c1sc(Cl)nc1C
    1 | -6% | 0% | 6% | -3% | 11µM*
C#CCNC(=O)C[C@H]1C[C@@]2(C(=O)OC)C(=C[C@H](C(C)(C)C)O[C@@H]2C)N(Cc2cccc3ccccc23)C1=O
    1 | x | x | x | x | x
CCCNS(=O)(=O)c1cccc(C(=O)NC2CCCc3ccccc32)c1 (stereo not drawn)
    -4 | 1% | 1% | 16µM* | u | 2%
CCOc1cccc(C2C=C(c3ccc4c(c3)OCO4)NC(c3ccc(Cl)cc3)N2)c1O (stereo not drawn)
    x | x | x | -10% | 0% | x
Cc1nc(CS(=O)(=O)c2ccccc2)cc(N2CCN(c3ccccc3F)CC2)n1
    -21 | 0% | 11% | 21µM* | -1% | -1%
Cc1nc(CS(=O)(=O)c2ccc(Cl)cc2)cc(N2CCOCC2)n1
    5 | -2% | 0% | 10% | -3% | 0%
COc1ccccc1N1CCN(C(=O)CSc2ncnc3scc(-c4ccccc4)c23)CC1
    0 | -2% | 2% | 18µM* | -3% | 2%
O=C(CSc1ncnc2scc(-c3ccccc3)c12)N1CCN(c2ccccc2F)CC1
    2 | -11% | 2% | u | 12% | -1%
COc1ccc(-c2nc(C#N)c(N3CCc4ccccc4C3)o2)cc1OC
    0 | -14% | 0% | 21µM* | -5% | 2%
Cc1ccccc1-n1nc(C)c2cc(C(=O)N3CCN(S(=O)(=O)c4ccc(F)cc4)CC3)sc21
    -1 | -13% | -1% | x | -2% | 0%
CC(=O)c1ccc(S(=O)(=O)N2CCN(C(=O)c3ccc(-n4nc(C)c(Cl)c4C)cc3)CC2)cc1
    2 | x | x | 26µM* | 0% | 0%
Cc1ccccc1-n1nc(C)c2cc(C(=O)N3CCN(S(=O)(=O)c4ccc(Cl)cc4)CC3)sc21
    -1 | -3% | 2% | 13µM* | -27% | 3%
CC1(C)CC(=O)C2=C(C1)NC(SCC(=O)Nc1ccccc1)=C(C#N)C2c1ccco1 (stereo not drawn)
    -1 | 1% | 0% | u | -23% | 5%
Cc1ccc(C(=O)CSC2=C(C#N)C(c3ccco3)C3=C(CC(C)(C)CC3=O)N2)cc1 (stereo not drawn)
    0 | 19% | 4% | 16µM* | u | 6%
COC(=O)C1CCN(C(=O)CN2CCC(C(=O)c3ccc(C)cc3)CC2)CC1
    -1 | x | x | x | x | x
CCCN(CCC)C(=O)c1cc2c(=O)[nH]c3ccc(C)cc3c2s1
    2 | -6% | -2% | 18µM* | -22% | -1%
CCCN(C(=O)c1cc2c(=O)[nH]c3ccc(C)cc3c2s1)c1ccc(CC)cc1
    6 | -4% | x | 1% | 7% | -1%
CCOc1ccc(CCNC(=O)c2cc3ccsc3n2C)cc1OC
    -2 | x | x | x | x | x
CCCCCn1c(Sc2nc3ccccc3s2)nc2c1c(=O)[nH]c(=O)n2C
    0 | -9% | 0% | 16µM* | -10% | 8%
CCCCCn1c(Sc2ncccn2)nc2c1c(=O)[nH]c(=O)n2C
    9 | -12% | -2% | x | 3% | 1%
CCOC(=O)c1ccc(-c2ccc3ncnc(NCc4cccs4)c3c2)o1
    x | x | x | 0% | u | x
C=CC(=O)N1C/C(=C/c2ccc(Cl)cc2)C(=O)/C(=C\c2ccc(Cl)cc2)C1
    3 | x | x | u | 23µM* | -3%
C=CC(=O)N1C/C(=C/c2ccccc2)C(=O)/C(=C\c2ccccc2)C1
    -11 | x | x | u | u | u
O=[N+]([O-])c1ccc(Cl)c(C[n+]2cccc3ccccc32)c1
    1 | 12% | 3% | 12µM* | -15% | -2%
O=C(C[n+]1cccc2ccccc21)c1ccc([N+](=O)[O-])cc1
    -2 | 3% | 3% | u | u | 15%
O=C(NCCc1ccccc1)OCc1cn(-c2cccc(F)c2F)nn1
    2 | x | x | x | x | x
C=CCn1c(C)cc(C(=O)CN2C(=O)c3ccccc3S2(=O)=O)c1C
    -5 | x | x | 0.65µM* | 5% | -3%
Cc1ccc(C(=O)CN2C(=O)c3ccccc3S2(=O)=O)cc1
    1 | u | 0% | 21µM* | -4% | -3%
Cc1cc(C(=O)CN2C(=O)c3ccccc3S2(=O)=O)c(C)n1-c1ccccc1
    -4 | u | -1% | u | -7% | -2%
COC[C@H]1CCCN1c1cccc2c1S(=O)(=O)N(C1CC1)CCCO2
    -3 | x | x | x | x | x
O=C(COc1ccccc1)NNc1c2ccccc2nc2ccccc12
    -2 | 20% | -1% | x | u | -1%
COc1ccc(OCC(=O)NNc2c3ccccc3nc3ccccc23)cc1
    4 | u | 0% | 21µM* | u | -1%
C/C(=N/NC(=O)Cc1cccs1)c1cccc([N+](=O)[O-])c1
    4 | x | x | x | x | x
Cc1cc2c(s1)c1cnn(Cc3ccc(-n4cncn4)cc3)c(=O)c1n2C
    x | x | x | -25% | -1% | x
CCc1nnc(NC(=O)CCC(=O)N2CCN(CCOc3ccc(C)cc3)CC2)s1
    -7 | 16% | 3% | 21µM* | -12% | -1%
CCc1nnc(NC(=O)CCC(=O)N2CCN(Cc3ccc(C)cc3C)CC2)s1
    -1 | 7% | -3% | -2% | 1% | 4%

Four entries from above in a different format:
O=C(COc1ccccc1)NNc1c2ccccc2nc2ccccc12
  PI4K2A inh = -2
  miR-21 reporter = 20%
  GALK inh = -1%
  Nrf2 inh = x
  A549 viability = u
  Nrf2 ARE act = -1%

COc1ccc(OCC(=O)NNc2c3ccccc3nc3ccccc23)cc1
  PI4K2A inh = 4
  miR-21 reporter = u
  GALK inh = 0%
  Nrf2 inh = 21µM*
  A549 viability = u
  Nrf2 ARE act = -1%

C/C(=N/NC(=O)Cc1cccs1)c1cccc([N+](=O)[O-])c1
  PI4K2A inh = 4
  miR-21 reporter = x
  GALK inh = x
  Nrf2 inh = x
  A549 viability = x
  Nrf2 ARE act = x

Cc1cc2c(s1)c1cnn(Cc3ccc(-n4cncn4)cc3)c(=O)c1n2C
  PI4K2A inh = x
  miR-21 reporter = x
  GALK inh = x
  Nrf2 inh = -25%
  A549 viability = -1%
  Nrf2 ARE act = x
